Protein sequences, listed by entry. Tags and fused reporters are not part of them.
UniProt P51681, whole entry: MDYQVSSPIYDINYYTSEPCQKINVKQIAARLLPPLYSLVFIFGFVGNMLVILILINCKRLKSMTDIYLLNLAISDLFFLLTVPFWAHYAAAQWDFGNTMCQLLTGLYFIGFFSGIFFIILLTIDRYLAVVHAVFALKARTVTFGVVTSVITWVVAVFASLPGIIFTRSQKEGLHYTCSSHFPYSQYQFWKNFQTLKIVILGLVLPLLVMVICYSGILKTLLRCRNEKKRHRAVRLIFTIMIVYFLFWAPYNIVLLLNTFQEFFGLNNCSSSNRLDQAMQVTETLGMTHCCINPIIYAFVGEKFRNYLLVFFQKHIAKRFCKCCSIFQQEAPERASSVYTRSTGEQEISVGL

According to publication PMC10223265 (Viruses, 2023):

Biological target: CCR5 (Homo sapiens, UniProt P51681)
Test: RANTES-induced calcium mobilization assay in CCR5-expressing HEK293 cells
Assay type: cell-based
Conditions: RANTES 34.6 nM, HEK293 cells expressing Gα15 and CCR5, Fluo-4

maraviroc
IC50: 0.68 nM
